Here are results for two compounds from US7994326B2 (Northwestern University, priority 2003, dated 2011).

For the test, the target named is T1, murine iNOS (Mus musculus, UniProt P29477).
T1 construct: made in house; host or cells: E. coli (plasmid pCWiNOS)
The test is described as follows: NOS enzyme inhibitory assay (hemoglobin capture), iNOS. The format is biochemical. To be noted: Table 1b.

With `Cc1cc(N)nc(C[C@H]2CNC[C@H]2NCCNCc2cccc(Cl)c2)c1` (racemic) [Compound P-49], the affinity corresponds to a Ki of 9.48 µM.

Turning to `Cc1cc(N)nc(C[C@H]2CNC[C@@H]2NCCNCc2cccc(Cl)c2)c1` (racemic) [Compound P-55], the Ki (in general, the dissociation constant of the complex between target and ligand, obtained from inhibition or displacement) was 44.1 µM.
